Assay outcomes deposited in PubChem by National Center for Advancing Translational Sciences (NCATS).
Rango complex inh = prevents formation of the Rango-importin beta complex. Q14974. Rango CFP/YFP FRET sensor + importin beta, 45 min. Potency, µM (highest dose often 92.2 µM), without a hit: top-dose inhibition of complex formation. 340,000 tested, 0.031% active. AID 540263;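 also: 0% = DMSO wells and 100% = buffer wells lacking importin beta; nearly all actives have a fitted effect of over 15% in size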
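FRET biosensor Rango (snurportin 1 IBB between N-terminal EYFP and C-terminal Cerulean), 50 nM in PBS/1 mM DTT/0.02% Tween-20/0.1% BSA, preincubated 5 min RT with compound; 0.125 microM importin beta added, 45 min RT, CFP/YFP FRET ratio read.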
Lamin A splicing = changes lamin A minigene splicing in HeLa cells | HeLa LMNA splicing GFP/RFP minigene ratio, 48 h | Potency, µM (highest dose often 46.1 µM), for inactives: at the top dose ratio change, negative = inhibition, hits mostly inhibitors | 200,000 tested, 0.01% active | AID 1487; active = well fitted inhibition curve with a large enough effect in the signal ratio, with a control signal flat, not every such curve was filed as active; inconclusive = small, poorly fitted or top-dose-only effect, or effect the other way, or a change in a side signal; the % refers to the signal ratio; also: % is scaled to controls: 0 for no effect and ±100 for the full control effect
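S3 HeLa cells stably expressing lamin A-EGFP splicing minigene plus DsRed2, 600 cells/well, 48 h compound exposure at 37C. Laser-scanning cytometry; analysed as GFP (500-530 nm)/RFP (575-640 nm) total intensity ratio; 0.5% DMSO vehicle.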
Rango release inh = inhibitors of RanGTP-induced Rango-importin beta complex dissociation; AID 540253; Potency, µM (titrated, usually from 46.1 µM), for the others: at the top dose activity change, negative = inhibition; 340,000 tested, 0.071% active; Biochemical FRET Rango-importin beta, RanGTP-induced dissociation; O95149+P62826; also: % of control where 0% means no effect; nearly all actives have a fitted effect of over 45% in size
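Rango FRET biosensor (snurportin-1 IBB flanked by N-terminal EYFP and C-terminal CFP10) at 0.1 uM, with 0.25 uM importin beta in PBS, 1mM DTT, 0.02% Tween-20, 0.1% BSA. 0.6 uM Ran, 2mM GTP and 0.2 uM RCC1 were then added for 45 min at room temperature. Inhibition read as loss of FRET rise.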
* hit, by the source's call; [ ] = remark or other dose. Compounds with a hit are over-represented: about 0.1% of the library has one in this group of screens. Unless noted, calls follow the shape of the full dose curve. Potency is read from the fitted curve at half-maximal effect.

`N#Cc1nc(COc2ccccc2Cl)oc1NCc1cccnc1` gave Rango complex inh inconclusive, Lamin A splicing 20.2% and Rango release inh 20.6µM*.
N#Cc1nc(COc2ccccc2Cl)oc1NCc1ccc(F)cc1 was read as Rango complex inh -4.4%, Lamin A splicing inconclusive and Rango release inh inconclusive.
For CCc1ccc(C(=O)NC(CC(C)C)C(=O)O)cc1 (configuration not stated) the results were Rango complex inh -0.3%, Lamin A splicing 16.3% and Rango release inh -18.1%.
COc1ccccc1-n1c2c(cc(C(=O)N3CCC(C)CC3)c1=O)C(=O)CC(C)(C)C2 was read as Rango complex inh 3.2%, Lamin A splicing -8.6% and Rango release inh 2.1%.
For CCOC(=O)c1ccc(Oc2nc(SC)nc(N(C)C)n2)cc1 the results were Rango complex inh -0.7%, Lamin A splicing -1.1% and Rango release inh -4.2%.
Cc1ccc(C(=O)NCCc2nnc3ccc(SCC(=O)NCc4ccc(F)cc4)nn23)cc1 was read as Rango complex inh 7.1% and Rango release inh -12.7%.
Screening COc1ccc(CCNC(=O)CSc2ccc3nnc(CCNC(=O)c4ccc(C)cc4)n3n2)cc1OC returned Rango complex inh inconclusive and Rango release inh 6.51µM*.
CC1CC(=O)N(CC(=O)Nc2ccc(F)cc2F)c2ccccc2S1(=O)=O (configuration not stated) was read as Rango complex inh 5.2% and Rango release inh 7.9%.
COc1ccc(Cn2c(N)c(C#N)c3nc4ccccc4nc32)cc1OC was read as Rango complex inh inconclusive, Lamin A splicing 21.5% and Rango release inh 11.6µM*.
Screening COc1ccc(CCn2c(N)c(C#N)c3nc4ccccc4nc32)cc1OC returned Rango complex inh inconclusive, Lamin A splicing 5.3% and Rango release inh inconclusive.
For O=C(NCc1cccc(F)c1)c1cccc2c1C(=O)c1ccc(N3CCOCC3)cc1S2(=O)=O the results were Rango complex inh inconclusive and Rango release inh -11.0%.
For COCCNC(=O)c1cccc2c1C(=O)c1ccc(N3CCOCC3)cc1S2(=O)=O the results were Rango complex inh 46.1µM* and Rango release inh -6.1%.

Structures from the list above that have a Cl atom (two):
`N#Cc1nc(COc2ccccc2Cl)oc1NCc1cccnc1` gave Rango complex inh inconclusive, Lamin A splicing 20.2% and Rango release inh 20.6µM*.
N#Cc1nc(COc2ccccc2Cl)oc1NCc1ccc(F)cc1 was read as Rango complex inh -4.4%, Lamin A splicing inconclusive and Rango release inh inconclusive.

Additional compounds.
CC(NC(=O)c1ccccc1)c1ccc(F)cc1 (configuration not stated) was read as Rango complex inh 2.4%, Lamin A splicing -9.1% and Rango release inh 0.5%.
Cc1c(Cl)cccc1NC(=S)N=Nc1c(O)n(CN2CCOCC2)c2ccccc12 was read as Rango complex inh -1.5%, Lamin A splicing inconclusive and Rango release inh 9.6%.
`CCOc1ccc(N2C(=O)CC(N3CCN(c4ccccc4OC)CC3)C2=O)cc1` (configuration not stated) gave Rango complex inh -4.6% and Rango release inh -8.9%.
Screening O=C1c2ccccc2-c2onc3c(N4CCN(CCO)CC4)cc(N4CCN(C(=O)c5ccco5)CC4)c1c23 returned Rango complex inh 36.6µM* and Rango release inh 12.7%.
CN1CCN(c2cc(N3CCN(C(=O)c4ccco4)CC3)c3c4c(onc24)-c2ccccc2C3=O)CC1 was read as Rango complex inh 0.5% and Rango release inh 10.1%.
For CN1/C(=C/C(=S)NC(=O)C2(C)CC2(Cl)Cl)C(C)(C)c2ccccc21 (configuration not stated) the results were Rango complex inh inconclusive, Lamin A splicing inconclusive and Rango release inh 0.517µM*[inhibitor].
Screening COc1ccccc1C(=O)NC(=S)/C=C1/N(C)c2ccccc2C1(C)C returned Rango complex inh -0.1%, Lamin A splicing inconclusive and Rango release inh inconclusive.
Screening Cc1cccc(C)c1NC(=O)CN(C)C(=O)c1ccc(COc2ccccc2)cc1 returned Rango complex inh -0.4% and Rango release inh 4.7%.
